The text below walks through data of US20230003720A1 (priority 2016, published 2023).

Entries after “also recorded” stand apart in the source; their conditions may differ.

Assay [1] relates to cells having broadly, moderately or narrowly tuned odorant receptors. Type of assay: cell-based.

For the compound `COc1cc(C(=O)O)ccc1O` [vanillic acid], in the assay with mOR160-1, the “level of luminescence at different concentrations” value is listed as “low background signal”. The “level of luminescence at different concentrations” value in the assay with mOR177-1 is “low background signal”. Moreover, in the assay on mOR9-1, the “level of luminescence at different concentrations” value was “decreasing level of luminescence as the concentration of vanillic acid is decreased”, the “lower limit of detection” value is recorded as “about 10 nM” and the “receptor tuning over a panel of different compounds (luminescence)” value was “more narrowly tuned”. In assay [1], the “detection of presence of the sample” value is “will be able to detect; also recorded: will not be able to detect”.
